The results in this text go back to article PMC6907089.

Common to all, as to test: BioID proximity labeling, quantitative mass spectrometry
What all share (settings): chain shown with the change; inducible HEK293 cells; read off a plot

Test [1] deals with GOGB1, Q14789.
The target of test [2] is T1, PDXD1 (pyridoxal-dependent decarboxylase domain-containing protein 1), Q6P996.
T1 chain: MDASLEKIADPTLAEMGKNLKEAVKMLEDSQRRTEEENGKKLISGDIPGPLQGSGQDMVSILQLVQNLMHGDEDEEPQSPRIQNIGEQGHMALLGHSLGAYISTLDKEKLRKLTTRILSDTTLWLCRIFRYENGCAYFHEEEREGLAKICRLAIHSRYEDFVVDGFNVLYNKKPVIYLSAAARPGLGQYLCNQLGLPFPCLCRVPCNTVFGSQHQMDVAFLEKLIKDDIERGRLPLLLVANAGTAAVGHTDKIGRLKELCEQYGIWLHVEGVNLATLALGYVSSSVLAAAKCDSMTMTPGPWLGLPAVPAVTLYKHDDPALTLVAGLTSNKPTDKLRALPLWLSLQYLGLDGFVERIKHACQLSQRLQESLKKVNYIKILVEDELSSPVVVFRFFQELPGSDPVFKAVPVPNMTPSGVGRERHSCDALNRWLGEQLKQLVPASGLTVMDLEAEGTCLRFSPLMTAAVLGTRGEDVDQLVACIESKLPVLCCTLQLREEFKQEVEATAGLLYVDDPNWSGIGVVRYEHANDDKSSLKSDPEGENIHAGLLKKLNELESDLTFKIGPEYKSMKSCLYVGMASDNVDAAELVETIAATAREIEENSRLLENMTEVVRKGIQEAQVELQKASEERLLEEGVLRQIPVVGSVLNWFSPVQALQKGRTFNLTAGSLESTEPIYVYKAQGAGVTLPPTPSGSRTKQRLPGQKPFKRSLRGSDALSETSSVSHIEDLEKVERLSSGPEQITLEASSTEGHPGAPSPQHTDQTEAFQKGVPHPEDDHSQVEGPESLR

The target of test [3] is T2, UBIA1, Q9Y5Z9.
T2 chain: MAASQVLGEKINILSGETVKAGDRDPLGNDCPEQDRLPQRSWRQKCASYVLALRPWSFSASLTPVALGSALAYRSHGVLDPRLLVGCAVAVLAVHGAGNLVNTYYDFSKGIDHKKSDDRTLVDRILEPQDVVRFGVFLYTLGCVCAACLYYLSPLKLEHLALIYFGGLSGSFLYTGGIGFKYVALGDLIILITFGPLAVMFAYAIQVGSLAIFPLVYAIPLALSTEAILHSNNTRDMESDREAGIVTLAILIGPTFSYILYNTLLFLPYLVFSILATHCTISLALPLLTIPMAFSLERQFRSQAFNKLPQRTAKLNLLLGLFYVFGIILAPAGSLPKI

Test [4] addresses T3, APMAP (adipocyte plasma membrane-associated protein), Q9HDC9.
T3 chain: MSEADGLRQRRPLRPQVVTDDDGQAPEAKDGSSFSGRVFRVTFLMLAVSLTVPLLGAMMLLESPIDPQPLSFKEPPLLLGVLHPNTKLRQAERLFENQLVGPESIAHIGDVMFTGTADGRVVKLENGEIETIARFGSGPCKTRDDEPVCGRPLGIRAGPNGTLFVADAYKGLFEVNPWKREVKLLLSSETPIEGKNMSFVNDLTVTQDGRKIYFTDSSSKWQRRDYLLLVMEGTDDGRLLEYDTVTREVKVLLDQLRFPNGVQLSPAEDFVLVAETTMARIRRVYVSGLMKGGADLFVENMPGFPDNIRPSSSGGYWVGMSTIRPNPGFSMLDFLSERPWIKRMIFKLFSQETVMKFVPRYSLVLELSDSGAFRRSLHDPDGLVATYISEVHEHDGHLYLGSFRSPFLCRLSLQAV

For test [5], the target named is T4, protein transport protein Sec24B, O95487.
T4 chain: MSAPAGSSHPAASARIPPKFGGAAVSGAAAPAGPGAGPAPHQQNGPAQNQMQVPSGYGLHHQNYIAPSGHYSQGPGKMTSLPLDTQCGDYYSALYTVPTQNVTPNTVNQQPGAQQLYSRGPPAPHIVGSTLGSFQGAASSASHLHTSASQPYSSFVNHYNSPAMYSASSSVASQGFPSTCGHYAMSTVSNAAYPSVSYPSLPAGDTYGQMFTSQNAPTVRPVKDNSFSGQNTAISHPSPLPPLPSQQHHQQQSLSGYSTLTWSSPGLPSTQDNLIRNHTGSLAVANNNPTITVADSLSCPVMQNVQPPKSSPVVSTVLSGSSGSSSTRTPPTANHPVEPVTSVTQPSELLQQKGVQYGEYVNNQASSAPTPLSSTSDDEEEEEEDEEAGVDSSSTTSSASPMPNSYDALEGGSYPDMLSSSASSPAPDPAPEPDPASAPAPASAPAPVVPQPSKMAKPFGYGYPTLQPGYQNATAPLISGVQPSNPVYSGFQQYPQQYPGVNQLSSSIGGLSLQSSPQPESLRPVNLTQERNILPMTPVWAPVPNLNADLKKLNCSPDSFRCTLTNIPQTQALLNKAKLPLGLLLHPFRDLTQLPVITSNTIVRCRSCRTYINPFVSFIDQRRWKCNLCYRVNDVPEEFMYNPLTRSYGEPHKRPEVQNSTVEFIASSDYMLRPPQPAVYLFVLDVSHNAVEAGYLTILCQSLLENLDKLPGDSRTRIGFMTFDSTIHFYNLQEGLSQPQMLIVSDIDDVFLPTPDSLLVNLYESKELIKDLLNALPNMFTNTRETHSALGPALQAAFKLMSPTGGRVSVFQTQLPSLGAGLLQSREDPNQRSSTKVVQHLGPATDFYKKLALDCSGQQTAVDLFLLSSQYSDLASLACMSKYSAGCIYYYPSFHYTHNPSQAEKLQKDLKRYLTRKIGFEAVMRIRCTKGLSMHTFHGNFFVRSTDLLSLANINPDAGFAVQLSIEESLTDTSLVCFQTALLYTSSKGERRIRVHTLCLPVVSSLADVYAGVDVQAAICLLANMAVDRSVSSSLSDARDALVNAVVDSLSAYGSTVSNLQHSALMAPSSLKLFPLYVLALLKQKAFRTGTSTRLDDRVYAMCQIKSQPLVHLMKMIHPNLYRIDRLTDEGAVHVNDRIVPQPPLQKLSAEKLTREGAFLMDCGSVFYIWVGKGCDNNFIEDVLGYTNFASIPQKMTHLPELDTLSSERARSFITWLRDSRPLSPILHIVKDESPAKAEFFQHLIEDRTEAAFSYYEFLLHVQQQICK

Test [6] deals with protein transport protein Sec23A, Q15436.
Test [7] has as its target T5, AP-1 complex subunit beta-1 (AP1B1), Q10567.
T5 chain: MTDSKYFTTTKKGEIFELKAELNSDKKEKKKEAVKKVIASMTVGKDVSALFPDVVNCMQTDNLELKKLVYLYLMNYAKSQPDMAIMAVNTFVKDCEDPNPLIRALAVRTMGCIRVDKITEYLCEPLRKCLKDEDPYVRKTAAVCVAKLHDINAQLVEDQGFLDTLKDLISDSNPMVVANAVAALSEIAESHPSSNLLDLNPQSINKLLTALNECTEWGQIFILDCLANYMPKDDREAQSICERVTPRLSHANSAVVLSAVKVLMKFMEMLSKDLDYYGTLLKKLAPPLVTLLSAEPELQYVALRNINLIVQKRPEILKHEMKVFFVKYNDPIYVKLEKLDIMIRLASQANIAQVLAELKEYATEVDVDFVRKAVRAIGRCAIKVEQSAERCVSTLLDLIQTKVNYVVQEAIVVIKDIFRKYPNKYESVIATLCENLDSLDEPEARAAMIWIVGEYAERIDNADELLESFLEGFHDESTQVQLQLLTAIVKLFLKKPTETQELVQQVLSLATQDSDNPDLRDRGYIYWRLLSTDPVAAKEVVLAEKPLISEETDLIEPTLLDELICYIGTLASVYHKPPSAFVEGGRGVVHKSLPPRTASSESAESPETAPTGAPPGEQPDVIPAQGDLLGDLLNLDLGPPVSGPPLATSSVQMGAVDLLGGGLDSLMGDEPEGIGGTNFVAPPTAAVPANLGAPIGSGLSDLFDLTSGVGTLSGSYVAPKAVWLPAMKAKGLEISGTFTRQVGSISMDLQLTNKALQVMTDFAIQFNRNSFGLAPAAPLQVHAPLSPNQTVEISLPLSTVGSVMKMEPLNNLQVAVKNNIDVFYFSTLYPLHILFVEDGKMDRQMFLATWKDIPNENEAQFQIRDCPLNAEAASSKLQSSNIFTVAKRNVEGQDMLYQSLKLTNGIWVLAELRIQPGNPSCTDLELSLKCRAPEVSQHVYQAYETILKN

Test [8] addresses T6, ubiquitin carboxyl-terminal hydrolase CYLD, Q9NQC7.
T6 chain: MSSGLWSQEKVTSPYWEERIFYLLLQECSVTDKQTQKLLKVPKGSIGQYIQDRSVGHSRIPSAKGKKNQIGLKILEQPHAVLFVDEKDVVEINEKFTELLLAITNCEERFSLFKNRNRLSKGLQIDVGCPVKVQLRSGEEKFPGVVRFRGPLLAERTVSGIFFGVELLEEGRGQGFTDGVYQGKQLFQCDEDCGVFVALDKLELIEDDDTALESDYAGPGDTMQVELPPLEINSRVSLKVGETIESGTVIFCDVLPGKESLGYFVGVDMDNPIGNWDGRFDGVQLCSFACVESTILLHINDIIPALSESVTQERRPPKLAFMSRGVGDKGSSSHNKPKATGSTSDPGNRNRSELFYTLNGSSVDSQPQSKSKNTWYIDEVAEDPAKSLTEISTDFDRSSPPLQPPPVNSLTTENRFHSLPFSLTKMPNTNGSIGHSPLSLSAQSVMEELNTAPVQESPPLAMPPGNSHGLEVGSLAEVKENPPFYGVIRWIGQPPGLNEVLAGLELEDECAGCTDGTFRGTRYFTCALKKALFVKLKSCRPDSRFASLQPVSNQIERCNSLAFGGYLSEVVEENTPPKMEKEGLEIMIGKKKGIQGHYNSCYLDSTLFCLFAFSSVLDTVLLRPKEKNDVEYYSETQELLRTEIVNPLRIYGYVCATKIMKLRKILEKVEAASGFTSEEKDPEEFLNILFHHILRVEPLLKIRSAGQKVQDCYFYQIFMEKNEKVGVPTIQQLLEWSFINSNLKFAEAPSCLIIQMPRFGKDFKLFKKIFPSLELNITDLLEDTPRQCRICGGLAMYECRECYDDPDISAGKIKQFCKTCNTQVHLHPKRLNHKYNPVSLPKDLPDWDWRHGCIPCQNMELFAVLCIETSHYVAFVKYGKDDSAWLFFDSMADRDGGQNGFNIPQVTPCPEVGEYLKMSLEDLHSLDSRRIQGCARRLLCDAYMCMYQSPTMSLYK

Test [9] has as its target protein transport protein Sec23B, Q15437.

B1: STING H232 (wild-type; wt), Q86WV6 G207E (protein)
chain: MPHSSLHPSIPCPRGHGAQKAALVLLSACLVTLWGLGEPPEHTLRYLVLHLASLQLGLLLNGVCSLAEELRHIHSRYRGSYWRTVRACLGCPLRRGALLLLSIYFYYSLPNAVGPPFTWMLALLGLSQALNILLGLKGLAPAEISAVCEKGNFNVAHGLAWSYYIGYLRLILPELQARIRTYNQHYNNLLRGAVSQRLYILLPLDCEVPDNLSMADPNIRFLDKLPQQTGDHAGIKDRVYSNSIYELLENGQRAGTCVLEYATPLQTLFAMSQYSQAGFSREDRLEQAKLFCRTLEDILADAPESQNNCRLIAYQEPADDSSFSLSQEVLRHLRQEEKEEVTVGSLKTSAVPSTSTMSQEPELLISGMEKPLPLRTDFS
Regarding B1, the ratio to parent in test [1] was determined as 2.7; in test [2] it was 0.33; in [3] it was 3; in [4], 0.25; in [5] it was 0.27; in [6] it was 0.17. Moreover, the ratio to parent in test [7] came to 0; in [8], 0.3; in [9], 0.38.

B2: STING R232, Q86WV6 G207E (protein)
chain: B1 chain
Take B2: the ratio to parent in test [1] was found to be 0.59; in test [2], 0.37; in test [3], 0.54; in test [4] it was 0; in test [5] it was 0.14; in [7] it was 0.57. For the same molecule, the ratio to parent is 1.1 in test [8] and 0.05 in test [9].
